Measured values: ChEMBL document CHEMBL1135410, “Adenine nucleotide analogues locked in a Northern methanocarba conformation: enhanced stability and potency as P2Y(1) receptor agonists” (J Med Chem, 2002)

Protein sequences, listed by entry. Tags and fused reporters are not part of them. Lines headed by an entry give the natural chain unless they say otherwise; changes in a name come on top.
UniProt P47900: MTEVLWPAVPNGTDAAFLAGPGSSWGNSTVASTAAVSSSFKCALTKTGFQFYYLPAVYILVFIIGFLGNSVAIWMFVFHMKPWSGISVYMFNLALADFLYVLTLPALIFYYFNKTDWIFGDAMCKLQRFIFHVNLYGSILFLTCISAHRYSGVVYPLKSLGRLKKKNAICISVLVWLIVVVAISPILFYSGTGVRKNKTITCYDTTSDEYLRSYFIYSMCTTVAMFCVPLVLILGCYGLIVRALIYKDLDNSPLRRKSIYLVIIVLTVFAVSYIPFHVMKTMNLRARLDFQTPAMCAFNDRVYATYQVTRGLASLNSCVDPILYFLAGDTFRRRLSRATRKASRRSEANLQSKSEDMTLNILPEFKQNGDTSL

Biological target: P2Y purinoceptor 1 (Homo sapiens, UniProt P47900)
Experiment: Accumulation of inositol phosphate in 1321N1 astrocytoma cells expressing human P2Y1 purinoceptor
Format: cell-based
How it was run: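 Inositol phosphate accumulation measured in 1321N1 human astrocytoma cells stably expressing human P2Y1, P2Y2, P2Y4 or P2Y11 receptor. Full concentration–effect curves, repeated in at least three separate experiments run in duplicate or triplicate. EC50 from four-parameter logistic fit. Relative efficacy (%) taken against a maximal effective concentration of UTP or UDP in the same experiment.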

CSc1nc(N)c2ncn([C@@H]3O[C@H](COP(=O)(O)OP(=O)(O)O)[C@@H](O)[C@H]3O)c2n1
EC50: 6.4 nM
